Test results published in patent US6511963B1 (priority 1992, dated 2003).

Chains of the proteins cited; added tags and fusions are not shown. Residues count along the entry.
UniProt Q00960, 27-1482 limits assumed: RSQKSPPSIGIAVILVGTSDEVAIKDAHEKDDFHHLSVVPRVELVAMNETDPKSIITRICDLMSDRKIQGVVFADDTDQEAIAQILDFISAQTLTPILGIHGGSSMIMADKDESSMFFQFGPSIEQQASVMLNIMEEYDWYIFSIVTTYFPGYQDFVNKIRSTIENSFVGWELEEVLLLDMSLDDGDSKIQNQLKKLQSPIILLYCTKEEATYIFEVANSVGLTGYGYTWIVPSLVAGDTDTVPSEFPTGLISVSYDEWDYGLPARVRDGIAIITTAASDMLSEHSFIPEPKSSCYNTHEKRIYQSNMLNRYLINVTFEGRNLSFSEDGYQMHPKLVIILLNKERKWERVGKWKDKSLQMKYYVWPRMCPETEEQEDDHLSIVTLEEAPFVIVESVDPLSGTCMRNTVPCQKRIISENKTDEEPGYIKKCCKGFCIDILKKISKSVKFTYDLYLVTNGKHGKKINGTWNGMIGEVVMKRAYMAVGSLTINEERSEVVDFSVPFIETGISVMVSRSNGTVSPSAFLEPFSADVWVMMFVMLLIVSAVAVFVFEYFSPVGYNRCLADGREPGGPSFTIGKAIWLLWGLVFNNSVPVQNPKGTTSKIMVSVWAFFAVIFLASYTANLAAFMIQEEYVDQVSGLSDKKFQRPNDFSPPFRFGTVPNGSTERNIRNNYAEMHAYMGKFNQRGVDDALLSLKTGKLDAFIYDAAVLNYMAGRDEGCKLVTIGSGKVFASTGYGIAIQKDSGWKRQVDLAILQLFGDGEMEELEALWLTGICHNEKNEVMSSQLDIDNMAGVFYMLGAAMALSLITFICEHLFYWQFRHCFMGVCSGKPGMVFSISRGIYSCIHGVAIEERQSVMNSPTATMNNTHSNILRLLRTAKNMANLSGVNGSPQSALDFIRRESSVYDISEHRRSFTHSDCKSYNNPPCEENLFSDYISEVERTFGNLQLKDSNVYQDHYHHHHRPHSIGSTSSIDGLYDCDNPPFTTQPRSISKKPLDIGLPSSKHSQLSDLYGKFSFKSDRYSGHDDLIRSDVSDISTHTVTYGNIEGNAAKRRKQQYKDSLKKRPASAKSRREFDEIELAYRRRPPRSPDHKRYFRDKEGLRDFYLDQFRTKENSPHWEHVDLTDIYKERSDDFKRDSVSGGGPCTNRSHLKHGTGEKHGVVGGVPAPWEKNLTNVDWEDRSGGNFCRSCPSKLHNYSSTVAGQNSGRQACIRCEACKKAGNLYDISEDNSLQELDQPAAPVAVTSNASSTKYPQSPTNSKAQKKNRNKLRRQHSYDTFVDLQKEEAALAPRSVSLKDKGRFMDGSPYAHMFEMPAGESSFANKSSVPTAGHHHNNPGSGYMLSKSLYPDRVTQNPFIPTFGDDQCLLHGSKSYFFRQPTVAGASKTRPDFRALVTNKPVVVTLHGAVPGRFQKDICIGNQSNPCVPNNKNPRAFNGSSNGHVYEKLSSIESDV

What was measured:
[1] = target: polyamine-sensitive site of the NMDA receptor (Rattus norvegicus, UniProt P35439+Q00960); assay: biochemical; format: binding
NMDA receptor [2] = target: T1, NMDA receptor (Rattus norvegicus, UniProt P35439+Q00960); settings: forebrain membranes, 30 nM
[3] = target: strychnine-insensitive Gly site on the NMDA receptor complex (Rattus norvegicus, UniProt P35439); assay: biochemical; format: binding
NMDA receptor [4] = target: T1, NMDA receptor; assay: biochemical; format: binding; parameters: other: test compound in the absence of spermine; concentration at 50% of maximum stimulation; % Sti; spermine = 100; other: with and without spermine; absence of spermine; % STI; absence
NMDA receptor [5] = format: binding, rat
NMDA receptor [6] = target: T1, NMDA receptor; format: binding; parameters: rows headed: EC (μM); other: test compound in the absence of spermine; concentration at 50% of maximum stimulation; % Sti; spermine = 100; other: with and without spermine; EC50; absence of spermine; % STI; absence of

Row | Compound | IC50 [1] [nM] | reduction of Gly-stimulated [3H]MK-801 binding (NMDA receptor [2]) | IC50 [3] [nM] | Emax (NMDA receptor [4]; read-out: % Sti) [%] | % Inh (NMDA receptor [5]) [%] | IC50 (NMDA receptor [5]; read-out: Spermine IC) [nM] | type of antagonism of NMDA receptor stimulation (NMDA receptor [6]) | % INH (NMDA receptor [5]) [%] | IC50 (NMDA receptor [5]; read-out: IC50) [nM] | Emax (NMDA receptor [4]; read-out: % STI) [%]
1 | CC[C@H](C)[C@H](NC(=O)[C@H](CC(C)C)NC(=O)[C@H](CC(C(=O)O)C(=O)O)NC(=O)[C@H](CCC(N)=O)NC(=O)[C@H](CC(N)=O)NC(=O)[C@H](C)NC(=O)[C@H](CCC(N)=O)NC(=O)[C@H](CC(C)C)NC(=O)[C@H](CC(C(=O)O)C(=O)O)NC(=O)[C@H](CC(C(=O)O)C(=O)O)NC(=O)[C@H](CCC(=O)O)NC(=O)CN)C(=O)N[C@@H](CCCNC(=N)N)C(=O)N[C@@H](CC(C(=O)O)C(=O)O)C(=O)N[C@@H](CCCCN)C(=O)N[C@@H](CO)C(=O)N[C@@H](CC(N)=O)C(N)=O [Ala7-Con-G, GEggLQANQgLIRgKSN] | > 2500 | about 20% | > 2500 | 0 |  |  |  |  |  | 
2 | CC[C@H](C)[C@H](NC(=O)[C@H](CC(C)C)NC(=O)[C@H](CC(C(=O)O)C(=O)O)NC(=O)[C@H](CCC(N)=O)NC(=O)[C@H](CC(N)=O)NC(=O)[C@H](CC(C(=O)O)C(=O)O)NC(=O)[C@H](CCC(N)=O)NC(=O)[C@H](CC(C)C)NC(=O)[C@H](CC(C(=O)O)C(=O)O)NC(=O)[C@H](CC(C(=O)O)C(=O)O)NC(=O)[C@H](CCC(=O)O)NC(=O)CNC(=O)[C@@H](N)CO)C(=O)N[C@@H](CCCNC(=N)N)C(=O)N[C@@H](CC(C(=O)O)C(=O)O)C(=O)N[C@@H](CCCCN)C(=O)N[C@@H](CO)C(=O)N[C@@H](CC(N)=O)C(N)=O [Ser^o-Con-G, S-GEggLQgNQgLIRgKSN] |  |  |  | 0 | 41 | 6800 |  |  |  | 
3 | CC[C@H](C)[C@H](NC(=O)[C@H](CC(C)C)NC(=O)[C@H](CC(C(=O)O)C(=O)O)NC(=O)[C@H](CCC(N)=O)NC(=O)[C@H](CC(N)=O)NC(=O)[C@H](CC(C(=O)O)C(=O)O)NC(=O)[C@H](CCC(N)=O)NC(=O)[C@H](CC(C)C)NC(=O)[C@H](CC(C(=O)O)C(=O)O)NC(=O)[C@H](CC(C(=O)O)C(=O)O)NC(=O)[C@H](CCC(=O)O)NC(=O)CN)C(=O)N[C@@H](CCCNC(=N)N)C(=O)N[C@@H](CO)C(=O)N[C@@H](CCCCN)C(=O)N[C@@H](CO)C(=O)N[C@@H](CC(N)=O)C(N)=O [Serl4-Con-G, GEggLQgNQgLIRSKSN] |  |  |  | 0 | 100 | 160 ± 40 | only antagonize the PA portion |  |  | 
4 | CC[C@H](C)[C@H](NC(=O)[C@H](CC(C)C)NC(=O)[C@H](CC(C(=O)O)C(=O)O)NC(=O)[C@H](CCC(N)=O)NC(=O)[C@H](CC(N)=O)NC(=O)[C@H](Cc1ccc(O)cc1)NC(=O)[C@H](CCC(N)=O)NC(=O)[C@H](CC(C)C)NC(=O)[C@H](CC(C(=O)O)C(=O)O)NC(=O)[C@H](CC(C(=O)O)C(=O)O)NC(=O)[C@H](CCC(=O)O)NC(=O)CN)C(=O)N[C@@H](CCCNC(=N)N)C(=O)N[C@@H](CC(C(=O)O)C(=O)O)C(=O)N[C@@H](CCCCN)C(=O)N[C@@H](CO)C(=O)N[C@@H](CC(N)=O)C(N)=O [Tyr7-Con-G, GEggLQYNQgLIRgKSN] |  |  |  | 0 | 100 | 500 |  |  |  | 
5 | CC[C@H](C)[C@H](NC(=O)[C@H](CC(C)C)NC(=O)[C@H](CC(C(=O)O)C(=O)O)NC(=O)[C@H](CCC(N)=O)NC(=O)[C@H](CC(N)=O)NC(=O)[C@H](Cc1ccc(O)c(I)c1)NC(=O)[C@H](CCC(N)=O)NC(=O)[C@H](CC(C)C)NC(=O)[C@H](CC(C(=O)O)C(=O)O)NC(=O)[C@H](CC(C(=O)O)C(=O)O)NC(=O)[C@H](CCC(=O)O)NC(=O)CN)C(=O)N[C@@H](CCCNC(=N)N)C(=O)N[C@@H](CC(C(=O)O)C(=O)O)C(=O)N[C@@H](CCCCN)C(=O)N[C@@H](CO)C(=O)N[C@@H](CC(N)=O)C(N)=O [iodo-Tyr7-Con-G, GEggLQY(I)NQgLIRgKSN] |  |  |  | 0 | 100 | 500 |  |  |  | 
6 | CC[C@H](C)[C@H](NC(=O)[C@H](CC(C)C)NC(=O)[C@H](CC(C(=O)O)C(=O)O)NC(=O)[C@H](CCC(N)=O)NC(=O)[C@H](CC(N)=O)NC(=O)[C@H](CC(C(=O)O)C(=O)O)NC(=O)[C@H](CCC(N)=O)NC(=O)[C@H](CC(C)C)NC(=O)[C@H](CC(C(=O)O)C(=O)O)NC(=O)[C@H](CC(C(=O)O)C(=O)O)NC(=O)[C@H](CCC(=O)O)NC(=O)CNC(=O)[C@@H](N)Cc1ccc(OC(C)(C)C)cc1)C(=O)N[C@@H](CCCNC(=N)N)C(=O)N[C@@H](CC(C(=O)O)C(=O)O)C(=O)N[C@@H](CCCCN)C(=O)N[C@@H](CO)C(=O)N[C@@H](CC(N)=O)C(N)=O [tBu-Tyr^o-Con-G, tBu-Y-GEggLQgNQgLIRgKSN] |  |  |  | 69 | 29 | 1500 |  | 29 | 1500 | 69

Read-outs that look alike come from different tables or passages of the source.
